Literature values, collected in article PMC10227131 (Pharmacological Reports, 2023).
Counter-ions that a name gives are not always drawn.

Tested on: MOP receptor
Conditions: inhibition of forskolin-stimulated cAMP formation, HEK cells stably expressing MOP receptor; ref Kuo et al. [36]; cited from earlier work
From the text: | column: In vitro agonist or antagonist activity* / MOP receptor

Structure (SMILES): CN1CC[C@]23c4c5ccc(O)c4O[C@H]2[C@@H](O)C=C[C@H]3[C@H]1C5 [morphine, morphine hydrochloride]
- In vitro agonist or antagonist activity, MOP receptor: Agonist^c
